Bioassay records deposited in PubChem by Broad Institute.
Yeast UUG start = alters start codon recognition fidelity in yeast. S. cerevisiae UUG-firefly luciferase reporter, luminescence/redox ratio. activity score, % at 18.7 µM. 0.13% of 350,000 active. AID 602363;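 active = replicate mean at a twofold rise or more, about +100% in these data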;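 also: firefly luciferase made from a UUG start codon reports start codon fidelity; reporter light over untreated wells divided by growth signal over untreated wells; some hits fall short of that in this replicate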
dFosB activator = enhances mouse delta FosB homodimer DNA binding. P13346. purified delta FosB, TAMRA-CDK5 oligo fluorescence polarization; percent of positive-control signal above neutral wells. activation, % at 25 µM. hit rate 0.99% among 340,000. AID 493131;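 active = mean activation above about 17%, with every replicate also reaching it, limit read from the data, passing the limit was not always enough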
Dyrk1A ADPGlo = Dyrk1A (rat) kinase inhibition | ADP-Glo luminescence, NFATc1 peptide | hit rate 0.43% among 310,000 | Q63470 | inhibition, % at 12.5 µM | AID 504441; in the data active = inhibition above about 50%;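 note: plate controls were vehicle with enzyme for no effect and no enzyme for full effect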
CAL PDZ FP-1 = inhibitors of human CAL PDZ peptide binding | AID 504414 | hit rate 0.02% among 330,000 | purified CAL PDZ, TMR-peptide fluorescence polarization, 1 h | inhibition, % at 20 µM | Q9HD26;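 active = highest replicate inhibition of at least 40%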;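 note: plate controls were DMSO neutral control wells for no effect and unlabeled competitor peptide control wells for full effect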
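Read-out basis: mP drop reported as inhibition | Assay system: Tagged CAL PDZ protein CerCALP, purified | Benchmarks: Unlabelled peptide for full inhibition, DMSO wells as neutral | Schedule: 1 h incubation at room temperature before polarization reading | Buffer or medium: Sodium phosphate/NaCl buffer pH 7.4 with TCEP, IgG, Thesit | Doses: Single point, 20 µM | Measured by: Fluorescence polarization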
CDK5 p35 inh = inhibitors of human CDK5/p35 kinase | Q00535+Q15078 | Recombinant CDK5/p35, ADP-Glo luminescence, 60 min | inhibition, % at 10 µM | hit rate 0.01% among 330,000;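 active = highest replicate inhibition of at least 50% and at least 75% of replicates reaching 50%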;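 note: plate controls were DMSO neutral control for no effect and GW8510 at 10 µM for full effect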
CAL PDZ FP-2 = blocks peptide binding to the human CAL PDZ domain. Q9HD26. purified CAL PDZ, TMR-peptide fluorescence polarization, 1 h. inhibition, % at 24.9 µM. hit rate 0.92% among 300,000. AID 602252;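 active = mean inhibition of at least 30% with at least half of replicates also reaching 30%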;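 note: 0% = DMSO neutral control and 100% = excess unlabeled competitor peptide PRC23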
* = called active by the depositor; . = no result given. Shown are actives, neighbours in structure and some others; about 1.7% of the full set was active somewhere.

SMILES	Yeast UUG start	dFosB activator	Dyrk1A ADPGlo	CAL PDZ FP-1	CDK5 p35 inh	CAL PDZ FP-2
CC(C)NC(=O)N(C)C[C@H]1Oc2ncc(-c3cccc(C#N)c3)cc2C(=O)N([C@@H](C)CO)C[C@@H]1C	-1	.	.	.	.	.
Cc1ccc(S(=O)(=O)N(C)C[C@@H]2Oc3c(NC(=O)C4CCOCC4)cccc3C(=O)N([C@@H](C)CO)C[C@H]2C)cc1	1	.	.	.	.	.
COc1ccc(NC(=O)Nc2ccc3c(c2)C(=O)N([C@@H](C)CO)C[C@H](C)[C@H](CN(C)C(=O)NC2CCCCC2)OCCCC[C@H](C)O3)cc1	16	.	.	.	.	.
Cc1noc(C)c1COC(=O)CCc1nc2ccccc2c(=O)[nH]1	-15	-5	.	.	-3	45*
O=C(N[C@H]1CC[C@@H](CCn2cc(-c3ccccn3)nn2)O[C@H]1CO)c1cccnc1	-21	.	.	.	.	.
O=C(Cc1csc(Nc2nc(=S)[nH]c3ccccc23)n1)N1CCN(c2cccc(Cl)c2)CC1	-26	-5	-1	-1	-1	54*
Cc1ccc(Cl)cc1N1CCN(C(=O)Cc2csc(Nc3nc(=S)[nH]c4ccccc34)n2)CC1	.	-8	3	-3	-1	-2
COc1ccc(NS(=O)(=O)c2cc(NC(=O)c3cnccn3)ccc2OC)cc1Br	3	-10	.	-1	1	71*
COc1ccc(NS(=O)(=O)c2cc(NC(=O)c3cnccn3)ccc2N2CCCC2)cc1	-5	-10	-1	-1	1	-3
C[C@H]1CN([C@@H](C)CO)S(=O)(=O)c2ccc(C#Cc3cccnc3)cc2O[C@H]1CN(C)C(=O)C1CC1	4	.	.	.	.	.
CCOC(=O)c1sc(-c2ccc(Cl)cc2Cl)nc1O	.	-4	-1	0	1	49*
N=c1n(CCN2CCCCC2)c2ccccc2n1CC(=O)c1cccc([N+](=O)[O-])c1	6	21*	15	2	1	2

Some of these compounds in order of their number in Dyrk1A ADPGlo, falling.
mol,Dyrk1A ADPGlo
N=c1n(CCN2CCCCC2)c2ccccc2n1CC(=O)c1cccc([N+](=O)[O-])c1,15
Cc1ccc(Cl)cc1N1CCN(C(=O)Cc2csc(Nc3nc(=S)[nH]c4ccccc34)n2)CC1,3
CCOC(=O)c1sc(-c2ccc(Cl)cc2Cl)nc1O,-1

Next entries follow:
SMILES	Yeast UUG start	dFosB activator	Dyrk1A ADPGlo	CAL PDZ FP-1	CDK5 p35 inh	CAL PDZ FP-2
O=C1S/C(=C/c2ccc(N3CCOCC3)o2)C(=O)N1Cc1ccc(F)cc1	-23	-4	-6	0	0	-4
O=C1NC(=S)S/C1=C/c1ccc(N2CCOCC2)o1	-19	49*	15	-9	6	-14
O=C(Nc1cccc(Cl)c1)N1C[C@@H]2[C@H](c3ccccc31)[C@@H](CO)N2C(=O)C1CC1	-4	.	.	.	.	.
C[C@H](CO)N1C[C@H](C)[C@@H](CN(C)Cc2ccc(Cl)c(Cl)c2)Oc2ccc(NC(=O)C3CCCCC3)cc2CC1=O	2	.	.	.	.	.
CCN(CCN(C)C)C(=O)c1ccc2c(c1NCCO)C(=O)c1ccccc1C2=O	.	20*	-5	2	3	-1
O=C(C[C@H]1CC[C@@H]2[C@H](COC[C@H](O)CN2C(=O)c2ccncc2)O1)NC1Cc2ccccc2C1	5	.	.	.	.	.
Cc1cc(C(=O)NNC(=O)c2ccc(S(=O)(=O)N(C)C)cc2)c(C)o1	.	-1	-2	-1	1	-2
Cc1cc(C(=O)NNC(=O)c2ccc(Cl)c(S(N)(=O)=O)c2)c(C)o1	-8	3	.	0	0	64*
C/C(=N\NC(=O)CNC(=O)c1ccc2c(c1)OCCO2)c1ccco1	.	-7	-5	0	1	7
C/C(=N\NC(=O)c1ccc2c(c1)OCO2)c1ccco1	-23	-2	.	-1	12	50*
O=[N+]([O-])/C(C=Nc1ccccc1O)=C\Nc1ccccc1O	-22	4	-6	0	0	35*
O=[N+]([O-])/C(=C\Nc1ccccc1Cl)S(=O)(=O)c1ccccc1	-26	0	-5	0	2	-1

One compound at a time (already shown).
Cc1ccc(S(=O)(=O)N(C)C[C@@H]2Oc3c(NC(=O)C4CCOCC4)cccc3C(=O)N([C@@H](C)CO)C[C@H]2C)cc1 as listed: Yeast UUG start = 1; dFosB activator = .; Dyrk1A ADPGlo = .; CAL PDZ FP-1 = .; CDK5 p35 inh = .; CAL PDZ FP-2 = .
COc1ccc(NS(=O)(=O)c2cc(NC(=O)c3cnccn3)ccc2N2CCCC2)cc1 as listed: Yeast UUG start = -5; dFosB activator = -10; Dyrk1A ADPGlo = -1; CAL PDZ FP-1 = -1; CDK5 p35 inh = 1; CAL PDZ FP-2 = -3

Other entries follow.
SMILES	Yeast UUG start	dFosB activator	Dyrk1A ADPGlo	CAL PDZ FP-1	CDK5 p35 inh	CAL PDZ FP-2
CCN(CCO)Cc1csc2ccc(C(C)(C)C)cc12	.	6	.	-1	1	57*
COc1ccc(NC(=O)N[C@H]2C=C[C@H](CC(=O)NC3CCCCC3)O[C@@H]2CO)cc1	1	.	.	.	.	.
CCOC(=O)C1=C(C)NC(C)=C(C(=O)OCC)C1C(=O)OCC(=O)NCc1ccccc1OC	-10	-5	.	0	0	88*
Cc1cc(N/N=C/c2cccc(F)c2)nc(NCc2ccccc2)n1	.	33*	2	-1	1	-2
Cc1cc(N/N=C/c2ccccc2)nc(NCc2ccccc2)n1	-5	38*	1	-2	0	5
Cc1cc(N/N=C/c2ccc(Cl)cc2)nc(NCc2ccccc2)n1	.	53*	-2	-2	0	2
O=C(Nc1nc2c(Br)cc(Br)cc2c(=O)s1)C1CCC1	.	-3	13	-1	0	37*
CNC[C@@H]1Oc2c(NC(=O)Nc3c(C)noc3C)cccc2C(=O)N([C@@H](C)CO)C[C@H]1C	-11	.	.	.	.	.
C[C@@H]1CN([C@@H](C)CO)C(=O)c2ccccc2-c2ccccc2CO[C@H]1CN(C)S(=O)(=O)c1ccc(C#N)cc1	10	.	.	.	.	.
Cc1nc(/C(N)=N/OC(=O)c2ccccc2Cl)c(C(F)(F)F)o1	-18	0	2	-1	1	68*
O=C(NCc1cccs1)c1ccncc1	-98	-3	4	-1	1	74*
O=C(NCc1cccs1)c1ccccc1	-29	-4	-4	-1	-1	-6
O=C(O)c1ccc(-c2nc(-c3ccc(Cl)cc3Cl)cs2)cc1	555*	-10	12	-3	-1	-3
C[C@H](NC(=O)C[C@@H]1CC[C@H](NC(=O)CN2CCOCC2)[C@@H](CO)O1)c1ccccc1	-17	.	.	.	.	.
CCNc1ccc(C(=O)NN=C2CCCC2)cc1[N+](=O)[O-]	.	3	0	0	2	32*
Cc1ccc(C(=O)NN=C2CCCC2)cc1C	-7	-6	4	1	-1	-2
CCNc1c([N+](=O)[O-])c(=O)oc2ccccc12	.	3	10	-2	-2	56*
Cc1cc2nc(SC(C)C(=O)O)[nH]c2cc1C (configuration not stated)	-17	-2	4	-3	0	active
CCN(C(=O)c1ccc2c(SCC(=O)O)c3c(nc2c1)CCC3)c1cc(Cl)ccc1OC	10	-11	-3	0	0	101*
CCC(=O)c1ccc(OCC(O)CNC2CCCC2)cc1 (configuration not stated)	-3	16*	-6	-1	0	-2
Nc1nonc1C(=O)NCCNCc1ccccc1OCc1ccccc1F	-24	-9	4	-1	0	74*
O=C(C[C@H]1C[C@H]2c3cc(NC(=O)C4CCC4)ccc3O[C@H]2[C@@H](CO)O1)NCC1CC1	-1	.	.	.	.	.
